{"source": "patent US10316050B2", "about": "“PT (IV) complexes containing 4,4′-disubstituted-2,2′-bipyridyl and their use in cancer therapy” (THE BOARD OF REGENTS OF THE NEVADA SYSTEM OF HIGHER …, priority 2014, dated 2019)", "assay": "Solubility in DMSO and common organic solvents", "format": "physicochemical", "protocol": "Coordination of the axial ligands to the Pt center improved the solubility of the complexes in common organic solvents. DMSO solutions of the Pt(IV) complexes with concentrations of 10 mM or higher were obtainable, whereas the Pt(II) can only be made at the highest concentration of 5 mM."}
{"substance": "[Pt(IV)Cl2(OAc)2(4,4′-dioctyloxy-2,2′-bipyridine)] [Pt(IV)-8C]", "values": [{"measurement": "solubility in DMSO and other common organic solvents (in words)", "value": "markedly improved compared to Pt(II)-8C"}]}
